Holding throughout (assay type): cell-based
For one experiment, the target named is hTRPM2 WT channel (Homo sapiens, UniProt O94759). Briefly: Whole-cell recording of ADPR-induced currents, HEK293 cells expressing WT hTRPM2. Particulars: read-out: EC50 ± SEM, intracellular ADPR.
A further experiment has as its target hTRPM2 H1346A mutant (Homo sapiens, UniProt O94759, H1346A). Put plainly: Whole-cell ADPR-induced currents, HEK293, H1346A mutant.
For another experiment, the target named is hTRPM2 H1346W mutant (Homo sapiens, UniProt O94759, H1346W). Briefly: Whole-cell ADPR-induced currents, HEK293, H1346W mutant. The conditions noted are these: read-out: EC50 ± SEM.
The target of a further experiment is hTRPM2 T1347A mutant (Homo sapiens, UniProt O94759, T1347A). Put plainly: Whole-cell ADPR-induced currents, HEK293, T1347A mutant.
For another experiment, the target named is hTRPM2 T1347F mutant (Homo sapiens, UniProt O94759, T1347F). Briefly: Whole-cell ADPR-induced currents, HEK293, T1347F mutant. Particulars: read-out: EC50 ± SEM.
For another experiment, the target named is hTRPM2 T1347Y mutant (Homo sapiens, UniProt O94759, T1347Y). Briefly: Whole-cell ADPR-induced currents, HEK293, T1347Y mutant. The conditions noted are these: read-out: EC50 ± SEM.
A further experiment concerns the target hTRPM2 Y1349A mutant (Homo sapiens, UniProt O94759, Y1349A). Put plainly: Whole-cell ADPR-induced currents, HEK293, Y1349A mutant.
Another experiment deals with hTRPM2 Y1349I mutant (Homo sapiens, UniProt O94759, Y1349I). Put plainly: Whole-cell ADPR-induced currents, HEK293, Y1349I mutant.
Another experiment deals with hTRPM2 L1379A mutant (Homo sapiens, UniProt O94759, L1379A). Put plainly: Whole-cell ADPR-induced currents, HEK293, L1379A mutant.
A further experiment concerns the target hTRPM2 L1379S mutant (Homo sapiens, UniProt O94759, L1379S). Put plainly: Whole-cell ADPR-induced currents, HEK293, L1379S mutant. Particulars: read-out: EC50 ± SEM.
In a further experiment the target is hTRPM2 S1391A mutant (Homo sapiens, UniProt O94759, S1391A). Briefly: Whole-cell ADPR-induced currents, HEK293, S1391A mutant. Particulars: read-out: EC50 ± SEM.
For a further experiment, the target named is hTRPM2 E1409A mutant (Homo sapiens, UniProt O94759, E1409A). Briefly: Whole-cell ADPR-induced currents, HEK293, E1409A mutant. Particulars: read-out: EC50 ± SEM.
In a further experiment the target is hTRPM2 E1409Q mutant (Homo sapiens, UniProt O94759, E1409Q). Put plainly: Whole-cell ADPR-induced currents, HEK293, E1409Q mutant. Particulars: read-out: EC50 ± SEM.
The next experiment addresses hTRPM2 D1431A mutant (Homo sapiens, UniProt O94759, D1431A). Briefly: Whole-cell ADPR-induced currents, HEK293, D1431A mutant.
In a further experiment the target is hTRPM2 D1431N mutant (Homo sapiens, UniProt O94759, D1431N). Put plainly: Whole-cell ADPR-induced currents, HEK293, D1431N mutant.
For a further experiment, the target named is hTRPM2 R1433A mutant (Homo sapiens, UniProt O94759, R1433A). Briefly: Whole-cell ADPR-induced currents, HEK293, R1433A mutant.
The next experiment addresses hTRPM2 R1433K mutant (Homo sapiens, UniProt O94759, R1433K). Briefly: Whole-cell ADPR-induced currents, HEK293, R1433K mutant.
A further experiment concerns the target hTRPM2 R1433G mutant (Homo sapiens, UniProt O94759, R1433G). Briefly: Whole-cell ADPR-induced currents, HEK293, R1433G mutant.
Another experiment addresses hTRPM2 L1484V mutant (Homo sapiens, UniProt O94759, L1484V). Put plainly: Whole-cell ADPR-induced currents, HEK293, L1484V mutant.
The target in a further experiment is hTRPM2 H1488A mutant (Homo sapiens, UniProt O94759, H1488A). Briefly: Whole-cell ADPR-induced currents, HEK293, H1488A mutant.
Another experiment has as its target hTRPM2 H1488F mutant (Homo sapiens, UniProt O94759, H1488F). Briefly: Whole-cell ADPR-induced currents, HEK293, H1488F mutant.

By UniProt entry, the sequences of proteins in these tests, tags left out.
UniProt O94759, whole entry: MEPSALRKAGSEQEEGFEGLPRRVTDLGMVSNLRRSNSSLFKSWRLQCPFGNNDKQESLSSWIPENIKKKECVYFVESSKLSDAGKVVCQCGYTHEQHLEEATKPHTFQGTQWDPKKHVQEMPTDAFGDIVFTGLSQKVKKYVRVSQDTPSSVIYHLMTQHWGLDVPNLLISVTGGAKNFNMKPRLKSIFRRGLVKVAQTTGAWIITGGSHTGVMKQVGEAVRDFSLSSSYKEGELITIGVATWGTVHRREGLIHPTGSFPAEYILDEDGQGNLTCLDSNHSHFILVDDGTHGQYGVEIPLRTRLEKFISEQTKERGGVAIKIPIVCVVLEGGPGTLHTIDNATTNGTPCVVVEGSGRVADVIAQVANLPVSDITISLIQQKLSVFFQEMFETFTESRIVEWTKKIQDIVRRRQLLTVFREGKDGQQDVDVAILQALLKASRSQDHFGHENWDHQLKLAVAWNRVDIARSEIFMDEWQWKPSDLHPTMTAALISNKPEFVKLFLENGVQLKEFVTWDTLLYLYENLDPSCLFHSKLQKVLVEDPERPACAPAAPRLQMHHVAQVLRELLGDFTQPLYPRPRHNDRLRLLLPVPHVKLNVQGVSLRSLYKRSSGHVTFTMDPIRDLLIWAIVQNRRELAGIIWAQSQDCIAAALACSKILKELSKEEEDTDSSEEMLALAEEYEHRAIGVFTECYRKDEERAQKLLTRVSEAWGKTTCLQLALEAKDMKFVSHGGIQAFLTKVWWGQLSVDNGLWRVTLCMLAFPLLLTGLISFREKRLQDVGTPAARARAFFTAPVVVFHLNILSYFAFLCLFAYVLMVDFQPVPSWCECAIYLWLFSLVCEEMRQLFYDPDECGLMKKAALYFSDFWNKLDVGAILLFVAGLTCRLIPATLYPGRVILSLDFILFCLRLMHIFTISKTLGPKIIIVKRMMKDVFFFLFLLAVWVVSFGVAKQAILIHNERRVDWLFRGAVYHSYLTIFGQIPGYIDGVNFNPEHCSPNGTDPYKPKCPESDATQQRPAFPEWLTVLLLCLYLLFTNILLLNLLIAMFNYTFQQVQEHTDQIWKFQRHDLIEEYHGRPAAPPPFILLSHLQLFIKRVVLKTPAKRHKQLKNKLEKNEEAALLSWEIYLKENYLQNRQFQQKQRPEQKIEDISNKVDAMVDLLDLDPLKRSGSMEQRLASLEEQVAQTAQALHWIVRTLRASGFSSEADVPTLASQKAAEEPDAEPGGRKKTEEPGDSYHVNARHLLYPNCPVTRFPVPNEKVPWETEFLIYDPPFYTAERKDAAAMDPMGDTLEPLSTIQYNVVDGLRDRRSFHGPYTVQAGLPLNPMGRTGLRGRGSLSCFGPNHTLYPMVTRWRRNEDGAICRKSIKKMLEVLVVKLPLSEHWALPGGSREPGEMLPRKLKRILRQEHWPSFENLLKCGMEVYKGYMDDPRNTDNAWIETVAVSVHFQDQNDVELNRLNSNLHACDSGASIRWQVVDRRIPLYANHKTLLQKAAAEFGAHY
UniProt O94759, whole entry H1346A: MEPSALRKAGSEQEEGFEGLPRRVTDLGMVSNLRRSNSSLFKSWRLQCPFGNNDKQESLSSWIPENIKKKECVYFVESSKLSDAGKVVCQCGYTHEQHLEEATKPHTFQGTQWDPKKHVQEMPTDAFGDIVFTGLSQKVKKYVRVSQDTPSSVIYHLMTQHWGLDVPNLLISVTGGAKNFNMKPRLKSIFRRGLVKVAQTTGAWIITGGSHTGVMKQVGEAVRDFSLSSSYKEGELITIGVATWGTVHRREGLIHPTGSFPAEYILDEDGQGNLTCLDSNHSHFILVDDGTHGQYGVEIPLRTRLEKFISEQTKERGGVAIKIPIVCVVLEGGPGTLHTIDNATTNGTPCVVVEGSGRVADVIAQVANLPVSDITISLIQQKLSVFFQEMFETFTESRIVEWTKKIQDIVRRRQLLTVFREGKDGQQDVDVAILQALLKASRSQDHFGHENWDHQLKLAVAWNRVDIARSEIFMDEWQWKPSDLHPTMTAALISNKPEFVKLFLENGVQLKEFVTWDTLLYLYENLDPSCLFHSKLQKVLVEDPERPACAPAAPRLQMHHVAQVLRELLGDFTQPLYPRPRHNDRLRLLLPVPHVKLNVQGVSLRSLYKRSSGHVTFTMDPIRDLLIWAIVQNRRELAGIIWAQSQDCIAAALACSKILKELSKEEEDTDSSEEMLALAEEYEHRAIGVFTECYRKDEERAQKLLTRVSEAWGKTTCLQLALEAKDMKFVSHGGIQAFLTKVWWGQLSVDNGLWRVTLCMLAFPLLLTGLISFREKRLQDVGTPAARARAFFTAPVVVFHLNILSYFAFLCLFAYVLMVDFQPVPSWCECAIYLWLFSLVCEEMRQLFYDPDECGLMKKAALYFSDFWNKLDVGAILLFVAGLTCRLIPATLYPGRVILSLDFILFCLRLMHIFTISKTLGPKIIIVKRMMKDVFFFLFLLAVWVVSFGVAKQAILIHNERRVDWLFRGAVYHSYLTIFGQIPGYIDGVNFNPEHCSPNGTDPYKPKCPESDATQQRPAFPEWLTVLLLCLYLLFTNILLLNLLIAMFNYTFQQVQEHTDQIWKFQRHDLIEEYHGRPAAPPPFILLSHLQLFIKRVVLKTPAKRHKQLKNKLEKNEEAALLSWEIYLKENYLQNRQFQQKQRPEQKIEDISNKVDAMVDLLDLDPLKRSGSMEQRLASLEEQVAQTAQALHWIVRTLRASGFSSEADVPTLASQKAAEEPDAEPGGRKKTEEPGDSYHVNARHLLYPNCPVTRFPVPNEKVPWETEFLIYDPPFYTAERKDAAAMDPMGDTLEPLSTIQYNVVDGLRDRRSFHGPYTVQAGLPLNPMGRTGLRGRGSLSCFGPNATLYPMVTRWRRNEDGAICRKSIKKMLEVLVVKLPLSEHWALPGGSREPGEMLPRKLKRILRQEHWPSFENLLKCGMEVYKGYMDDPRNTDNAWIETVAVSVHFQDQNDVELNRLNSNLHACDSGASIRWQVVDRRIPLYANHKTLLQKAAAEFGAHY
UniProt O94759, whole entry H1346W: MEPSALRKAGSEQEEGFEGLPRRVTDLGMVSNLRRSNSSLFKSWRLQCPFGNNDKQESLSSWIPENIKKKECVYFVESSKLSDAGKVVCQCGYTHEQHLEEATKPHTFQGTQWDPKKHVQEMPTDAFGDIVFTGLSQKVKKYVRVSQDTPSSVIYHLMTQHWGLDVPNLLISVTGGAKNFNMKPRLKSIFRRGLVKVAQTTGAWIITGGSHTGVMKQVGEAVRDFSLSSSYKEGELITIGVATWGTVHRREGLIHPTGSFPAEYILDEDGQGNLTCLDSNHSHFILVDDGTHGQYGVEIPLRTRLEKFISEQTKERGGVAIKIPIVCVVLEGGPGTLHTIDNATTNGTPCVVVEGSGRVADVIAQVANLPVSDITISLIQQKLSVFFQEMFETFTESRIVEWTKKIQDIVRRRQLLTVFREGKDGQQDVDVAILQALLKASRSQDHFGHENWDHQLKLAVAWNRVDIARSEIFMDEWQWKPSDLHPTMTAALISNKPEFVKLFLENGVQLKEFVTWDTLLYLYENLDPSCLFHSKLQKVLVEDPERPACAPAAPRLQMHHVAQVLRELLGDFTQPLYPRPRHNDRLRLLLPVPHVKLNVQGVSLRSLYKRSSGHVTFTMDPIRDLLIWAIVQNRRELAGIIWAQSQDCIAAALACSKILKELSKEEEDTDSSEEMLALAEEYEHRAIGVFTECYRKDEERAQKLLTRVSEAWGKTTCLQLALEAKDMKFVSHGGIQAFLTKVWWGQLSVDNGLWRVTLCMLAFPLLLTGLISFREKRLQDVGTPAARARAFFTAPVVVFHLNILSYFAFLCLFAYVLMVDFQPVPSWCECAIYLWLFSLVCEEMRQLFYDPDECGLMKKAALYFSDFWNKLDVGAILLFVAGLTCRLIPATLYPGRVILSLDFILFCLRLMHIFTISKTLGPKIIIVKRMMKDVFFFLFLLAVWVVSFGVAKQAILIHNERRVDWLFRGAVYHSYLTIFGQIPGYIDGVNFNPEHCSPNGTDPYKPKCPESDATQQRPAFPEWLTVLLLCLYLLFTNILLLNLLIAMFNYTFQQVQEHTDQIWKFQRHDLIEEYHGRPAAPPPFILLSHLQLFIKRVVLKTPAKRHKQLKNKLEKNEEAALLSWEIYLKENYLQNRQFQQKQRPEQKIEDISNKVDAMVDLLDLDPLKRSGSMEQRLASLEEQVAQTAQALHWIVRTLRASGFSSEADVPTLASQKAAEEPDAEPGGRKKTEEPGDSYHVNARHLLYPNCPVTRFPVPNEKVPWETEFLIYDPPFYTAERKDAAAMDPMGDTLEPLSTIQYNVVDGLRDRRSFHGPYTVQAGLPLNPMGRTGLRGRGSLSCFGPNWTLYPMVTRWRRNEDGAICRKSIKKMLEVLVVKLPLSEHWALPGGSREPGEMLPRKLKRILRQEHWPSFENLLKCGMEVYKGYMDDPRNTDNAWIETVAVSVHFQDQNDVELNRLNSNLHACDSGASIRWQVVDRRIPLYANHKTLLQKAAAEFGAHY
UniProt O94759, whole entry T1347A: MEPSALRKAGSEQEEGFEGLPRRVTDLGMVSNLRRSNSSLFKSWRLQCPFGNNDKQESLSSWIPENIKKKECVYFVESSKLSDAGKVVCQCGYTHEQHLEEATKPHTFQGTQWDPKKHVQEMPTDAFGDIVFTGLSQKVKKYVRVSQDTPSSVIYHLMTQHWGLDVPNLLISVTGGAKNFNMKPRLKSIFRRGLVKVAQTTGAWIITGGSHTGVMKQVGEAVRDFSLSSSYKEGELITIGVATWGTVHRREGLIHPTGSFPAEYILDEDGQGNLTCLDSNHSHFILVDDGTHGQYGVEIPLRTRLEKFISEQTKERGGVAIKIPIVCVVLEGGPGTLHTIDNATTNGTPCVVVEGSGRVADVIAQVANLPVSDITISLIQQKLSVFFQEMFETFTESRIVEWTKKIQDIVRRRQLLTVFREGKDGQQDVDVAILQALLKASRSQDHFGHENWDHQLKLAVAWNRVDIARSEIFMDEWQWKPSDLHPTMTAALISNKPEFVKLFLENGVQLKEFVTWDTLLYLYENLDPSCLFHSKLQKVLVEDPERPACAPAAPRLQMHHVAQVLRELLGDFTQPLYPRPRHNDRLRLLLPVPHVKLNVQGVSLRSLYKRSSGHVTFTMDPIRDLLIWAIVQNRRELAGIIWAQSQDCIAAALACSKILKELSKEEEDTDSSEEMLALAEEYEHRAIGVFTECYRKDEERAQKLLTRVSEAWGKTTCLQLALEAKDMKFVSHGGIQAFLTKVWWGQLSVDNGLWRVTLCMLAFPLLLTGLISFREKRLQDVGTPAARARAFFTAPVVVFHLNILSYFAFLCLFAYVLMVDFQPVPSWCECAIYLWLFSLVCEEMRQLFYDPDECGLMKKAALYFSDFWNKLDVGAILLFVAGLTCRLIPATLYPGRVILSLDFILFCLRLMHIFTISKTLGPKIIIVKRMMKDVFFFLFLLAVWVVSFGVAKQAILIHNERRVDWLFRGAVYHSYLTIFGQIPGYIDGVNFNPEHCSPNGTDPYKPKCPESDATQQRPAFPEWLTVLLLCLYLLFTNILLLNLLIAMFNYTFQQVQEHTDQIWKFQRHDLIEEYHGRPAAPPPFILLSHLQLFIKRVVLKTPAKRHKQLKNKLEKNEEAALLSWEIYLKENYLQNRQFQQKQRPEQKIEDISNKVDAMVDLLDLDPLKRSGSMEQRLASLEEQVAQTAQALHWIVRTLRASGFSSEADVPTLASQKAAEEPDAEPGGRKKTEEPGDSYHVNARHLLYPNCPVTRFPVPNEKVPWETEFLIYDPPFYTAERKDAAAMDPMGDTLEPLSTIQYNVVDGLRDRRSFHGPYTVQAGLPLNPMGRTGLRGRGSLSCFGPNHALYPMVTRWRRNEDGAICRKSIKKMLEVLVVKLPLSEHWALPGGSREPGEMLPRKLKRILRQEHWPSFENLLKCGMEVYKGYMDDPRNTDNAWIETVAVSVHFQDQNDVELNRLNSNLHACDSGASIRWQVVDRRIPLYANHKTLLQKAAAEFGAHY

The results in this text go back to paper PMC5299621 (The Journal of General Physiology, 2017).

Values joined by “and” are separate entries in the source; they are usually repeats but may differ in a detail not shown here. Equal values may be shown once.

Consider adenosine diphosphate ribose [ADPR], for which the EC50 was ~40 µM and 40.5 µM on hTRPM2 WT channel; > 1000 µM on hTRPM2 H1346A mutant; 112 ± 6.4 µM at hTRPM2 H1346W mutant; > 1000 µM at hTRPM2 T1347A mutant; 92.9 ± 11.2 µM at hTRPM2 T1347F mutant; 115 ± 13.4 µM on hTRPM2 T1347Y mutant. The EC50 is > 1000 µM at hTRPM2 Y1349A mutant; > 10000 µM on hTRPM2 Y1349I mutant; 3 to 100 µM at hTRPM2 L1379A mutant; 10.8 ± 3.5 µM at hTRPM2 L1379S mutant; 3.5 ± 0.2 µM at hTRPM2 S1391A mutant; 506 ± 109 µM on hTRPM2 E1409A mutant. Further, the EC50 is 5.4 ± 1.6 µM at hTRPM2 E1409Q mutant; > 1000 µM on hTRPM2 D1431A mutant; > 100000 µM on hTRPM2 D1431N mutant; > 1000 µM at hTRPM2 R1433A mutant; > 1000 µM on hTRPM2 R1433K mutant; > 10000 µM at hTRPM2 R1433G mutant. In addition, the EC50 was 3 to 100 µM on hTRPM2 L1484V mutant, > 1000 µM on hTRPM2 H1488A mutant and > 10000 µM at hTRPM2 H1488F mutant.
